Ab-14 heavy chain CDR variants: yeast mating affinities

All variants were tested on one target, the spike HR2 peptide PDVDLGDISGINAS (SARS-CoV-2).

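Phage display of a naive human antibody library on the peptide gave the parent. This is the validation round: designs drawn from the data on random variants, tested in the same kind of assay. Group labels follow the data file (Ctrl: baseline library sampled from a position-specific scoring matrix, with some repeated check sequences; Rand: our label for a block that the file lists under HC and that is probably the random mutants of the ten best first-round binders; En: ensemble of fine-tuned language models; GP: Gaussian process model; GPLM: also part of the Gaussian process libraries; HC: hill climbing; Gen: genetic algorithm; Gibbs: Gibbs sampling; a sequence that several methods proposed may carry one label only). Affinity was read by AlphaSeq, a pooled yeast mating assay with surface-displayed partners. Binding brings cells together so that they mate, and sequencing counts the barcode pairs among the diploids. The ratio of observed to expected reads was calibrated, replicate by replicate, on BCL2-family standards whose Kd was known from biolayer interferometry. Mating was done six times.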

The variants keep the light chain, the linker and the frameworks of Ab-14 (scFv order VH, a (GGGGS)3 linker, VL).
VH: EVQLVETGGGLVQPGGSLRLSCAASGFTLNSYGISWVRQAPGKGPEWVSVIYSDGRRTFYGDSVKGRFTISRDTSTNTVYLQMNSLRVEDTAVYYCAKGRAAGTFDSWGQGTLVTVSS
VL: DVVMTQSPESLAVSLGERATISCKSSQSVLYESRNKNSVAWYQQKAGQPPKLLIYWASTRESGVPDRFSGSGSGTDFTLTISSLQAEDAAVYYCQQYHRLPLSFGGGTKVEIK

Each variant is given by its three heavy chain CDRs, as the data file delimits them; those of the parent are GFTLNSYGIS, VIYSDGRRTFYGDSVK, GRAAGTFDS. Affinities are written as log10 Kd with Kd in nM; a lower number is a better binder. Replicates are averaged; those with no signal do not enter the mean. "no signal" means that the variant was in the library but no mating with the target was seen in any replicate; the authors take this as a sign of poor binding, and no number exists. A sequence that the file lists under several names has all its replicates pooled.

CDR-H1	CDR-H2	CDR-H3	group	log10 Kd (nM), mean	detected
GFTLNQYGIS	VIYSDGRRTAYIDSVK	GRAAGTFDS	Ctrl	0.93	6/6
GFTLNSYGIS	VIYSDGRRTAYGDSVK	GRAACTFDS	Ctrl	no signal	0/6
GFDLNEYGIS	VIYADGRRTFYTDSVK	GEFAGTFDI	En_HC	-1.40	6/6
GFTLNSYGIS	VIYADGRRTFYGDSVK	GRAAGTFDV	Ctrl+GPLM_Gen	-0.15	6/12
GFNLNSYGIS	VIYSDGRRTFYGDSVK	GRAAGCFDS	Ctrl	1.82	6/6
GFTLNSYGIS	VIYSDGCRTFYGDSVK	GRAAGTFDS	Ctrl	1.21	4/6
GFDLDEYGIS	VIYADGKRTAYADNVK	GNNAGTFDV	En_Gen	-0.27	6/6
GFDLNSYGIS	VIYSDGRRTFYGDKVK	GRTAGTFDT	GP_Gibbs	-0.06	6/6
GFDLNEYGIS	VIYADGRRTFYADSVK	GNLAGTFDQ	En_HC	-0.18	6/6
GFTLNEYGIS	VIYSDGRRTFYGDSVK	GLAAFTFDS	Ctrl	no signal	0/6
GFTLNSYGIS	VIYSDGRRTFYGDSVK	GRADGTFDS	Ctrl	0.67	3/6
GFDLNEYGIS	VIYADGLRTSYADSVK	GQLAGTFDV	En_HC	-0.61	6/6
GFDLNEYGIS	VIYADGMRTVYTDSVK	GENAGTFDV	En_Gen	-0.62	6/6
GFDLDEYGIS	VIYADGRRTAYADSVK	GTLAGTFDA	En_HC	-0.63	6/6
GFTLTSYGIS	VIYSDGRRTFYGDSVK	GKNAGTFDS	Ctrl	1.79	2/6
GFDLNEYGIS	VIYADGKRTAYSDSVK	GNVAGTFDE	En_Gen	-0.33	6/6
RFTLNSYGIS	VIYSDGRRTFYQDSVK	GKAAGTFSS	Ctrl	1.32	1/6
KFDIEEYGIS	VIYADGERTSYSNAVK	GNMGGTFLI	En_Gibbs	1.27	1/6
GFDLNEYGIS	VIYADGVRTAYTDSVK	GQVAGTFDV	En_Gen	-0.61	6/6
GFNLNSYGIS	VIYSDGRRTFYGDAVK	GRIAGTFDS	GP_Gibbs	1.33	6/6
GFDLNEYGIS	VIYADGVRTFYTDSVK	GENAGTFDV	En_HC	-0.44	6/6
GFQLNDYGIS	VIYSDGRRTFYGDSVK	GRNAGTFIS	GP_HC	no signal	0/6
GFELNSYGIS	VIYSDGRRTFYKDSVK	GRTAGTFDA	GP_Gen	0.14	6/6

The remaining entries, values ahead:

log10 Kd (nM), mean	detected	CDR-H1	CDR-H2	CDR-H3	group
no signal	0/6	GQDLNEYGIS	VIYADGLRTAYTNNVK	GNQSDFDSG	En_Gibbs
no signal	0/6	GFWLDEYGIS	VIYADGMRTAYKNSVK	GSFTYVMQV	En_Gibbs
no signal	0/6	GFTLNEYGIS	VIYSDGRRTFYGDSVK	GRMAGTFDL	GP_HC
-0.04	6/6	GFDLNEYGIS	VIYADGMRTAYADSVK	GHNAGTFDI	En_Gen
no signal	0/6	GFTLYSYGIS	VIASDGRRTFYSDSVK	GRAGMTFDN	Rand
0.26	6/6	GFSLNSYGIS	VIYSDGRRTEYGDSVK	GRTAGTFDS	GPLM_Gen
no signal	0/6	GFTLMSYGIS	VIYSDGRRTFYIDSVK	GQLAGTFDS	GPLM_HC
no signal	0/6	GFTLNSYGIS	VIYSDARRTSYADSVK	GRAAGWFDS	Ctrl
-0.41	6/6	GFDLNEYGIS	VIYADGRRTAYADSVK	GNEAGTFDT	En_Gen
-0.25	6/6	GFNLNEYGIS	VIYADGRRTFYADSVK	GEAAGTFDQ	En_HC
0.68	6/6	GFNLNSYGIS	VIYSDGRRTFYQDSVK	GGVAGTFDS	Ctrl
0.63	6/6	GFTLNEYGIS	VIYSDGRRTFYHDSVK	GRAAGTFDT	GP_Gen
0.34	6/6	GFNLNSYGIS	VIYSDGRRTFYKDSVK	GQEAGTFDS	GPLM_Gibbs
no signal	0/6	GFTLNSYAIS	VIYSDGRRTFYSDSVR	GRAAGTFDS	Ctrl
-0.15	6/6	GFDLNSYGIS	VIYSDGRRTFYGDSVK	GSTAGTFDF	GP_Gibbs
0.28	6/6	GFSLNSYGIS	VIYSDGHRTFYGDSVK	GKTAGTFDS	GP_Gibbs
no signal	0/6	GFTLNSYGIT	VIYSDGRRTFYLDSVK	GQAAGTFDS	Ctrl
1.22	1/6	KFDLNSYGIS	VIYSDGRRTFYQDSVK	GQAAGTFDS	GP_Gen
0.62	6/6	GFDLDEYGIS	VIYADGQRFAYAQQFK	GEAGGAFDL	En_Gibbs
0.77	6/6	GFTLNMYGIS	VIYSDGRRTAYDDSVK	GRAAGTFDL	Ctrl
0.96	6/6	GFDLNEYGIS	VIYADGMRKAYADDVK	GENAGTFDQ	En_Gen
-0.60	6/6	GFDLNEYGIS	VIYADGMRTAYQDSVK	GEVAGTFDV	En_Gen
0.44	6/6	GFSLNEYGIS	VIYSDGRRTFYGDQVK	GRTAGTFDS	GPLM_Gen
0.65	6/6	GFTLNDYGIS	VIYSDGRRTFYSDSVK	GRAAGTFDI	GP_HC

For reference, 4 entries of the list once more:

CDR-H1	CDR-H2	CDR-H3	group	log10 Kd (nM), mean	detected
GFTLTSYGIS	VIYSDGRRTFYGDSVK	GKNAGTFDS	Ctrl	1.79	2/6
GFDLNEYGIS	VIYADGRRTFYADSVK	GNLAGTFDQ	En_HC	-0.18	6/6
KFDLNSYGIS	VIYSDGRRTFYQDSVK	GQAAGTFDS	GP_Gen	1.22	1/6
GFDLDEYGIS	VIYADGRRTAYADSVK	GTLAGTFDA	En_HC	-0.63	6/6

The authors averaged sequences with at least three values out of six and counted those with two or fewer as poor binders. The parent sequence was in this pool as ten entries: three were never detected, three once, and four in most replicates, with averages from 0.34 to 2.37. Values of this round are not directly comparable with the first-round values of the same sequences. Background: pairings of all heavy chain designs with three empty control strains gave a value in 1% of cases (median 2.08, 5th percentile 0.84). Values in that range, when seen in few replicates, are hard to tell from nonspecific mating.

Values reported by Li et al. 2023, doi:10.1038/s41467-023-39022-2 (FLAb copy).